Source: patent US8263108B2, “Zero-order prolonged release coaxial implants” (Durect Corporation, priority 2001, dated 2012)

Assay: In vitro dissolution of naltrexone or fentanyl coaxial PCL implants
Settings: PBS pH 7.4, 37° C.

Which “effect of membrane thickness on release of naltrexone base from coaxial implant” value (PCL coaxial implants, 10 or 30 wt % core, different ro:ri, FIG. 2) does the source give for `O=C1CC[C@@]2(O)[C@H]3Cc4ccc(O)c5c4[C@@]2(CCN3CC2CC2)[C@H]1O5` here?
The value was “The thicker the polymer membrane, the slower the release”.

What about the “release profile, highest core loading” value (implants having a ro:ri of 1.1, highest core loading, FIG. 3) of the same compound?
Its value is “zero-order release profile can be maintained for a longer duration”.

And the “release profile, lower loaded implants” value (implants having a ro:ri of 1.1, lower core loading, FIG. 3)?
Its value is “gradual decline in the rate of NTX release”.
